The target in the test is G3BP1 (human), Q13283. As to the kind of experiment: ITC at 25 °C, peptide titrated into G3BP1.

This note sets out measurements from patent EP4269424A1, “NOVEL ANTIVIRAL COMPOUNDS AND USE THEREOF” (priority 2022, dated 2023).

By Kd is commonly meant the constant that tells how readily two partners part at equilibrium. A high value points to lower affinity.

The molecule LTFGDFDEHEASGITFGDFDDW (modifications not checked) [G3BPi spacer peptide without CPP] registered a Kd of 1500 nM.

LTFGDFDEHEALASGITFGDFDDW (modifications not checked) [G3BPi spacer2 peptide without CPP] gave a Kd of 4400 nM.
